# This is a selection; strong and weak results do not stand in their true shares. Inconclusive results are not listed. Calls of active or inactive are those of the source.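 The calls were made as follows: active = readout at or below -70, meaning at least 70% loss of cells showing the perinucleolar compartment, a nuclear body marking cancer cells; inconclusive = readout between -30 and a set limit; inactive = the rest.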
# Assay: High Content Assay for Compounds that inhibit the Assembly of the Perinucleolar Compartment;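 also: plate controls were DMSO wells for no effect and camptothecin positive control wells for full effect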
# Conditions: PC3M PTB-GFP, PNC prevalence imaging, 16 h; at 10 µM; active compounds read low
# Description: High Content Assay for Compounds that inhibit the Assembly of the Perinucleolar Compartment NIH Chemical Genomics Center [NCGC] NIH Molecular Libraries Probe Centers Network [MLPCN] MLPCN Grant: MH082371-01A2 Assay Submitter (PI): Sui Huang, Northwestern University, Feinberg School of Medicine, Cell and Molecular Biology, Chicago, Illinois. The perinucleolar compartment (PNC) is a non-membrane-bound nuclear subdomain that is associated with but structurally distinct from the nucleolus. The PNC is a heritable trait, in which the number of PNCs per cell in daughter cells often mimics that of their mother cells. The PNC is heterogeneous in shape, is stable through interphase, disassembles during mitosis, and reassembles in early G1. The PNC is concentrated with newly synthesized RNA polymerase III (pol III) RNAs (MRP RNA, RNAse P H1 RNA, hY RNAs[hY1, 2, 5], Alu RNA, and SRP [7SL] RNA) and RNA binding proteins (nucleolin, PTB, CUG-BP, KSRP, Raver1, Raver2, and Rod). […] Extensive in vitro studies have shown that the PNC is unique to tumor cells and preferentially forms in tumor cells derived from solid tissues. Examination of cancer cell lines from various origins and malignant capacities has shown that PNC prevalence correlates with the malignancy of tumors and has the potential to be developed as a pan-cancer prognostic marker. […] Although the PNC is associated with a DNA locus and a handful of components have been identified, much remains to be investigated regarding the structure and function of the PNC and its mechanistic link to cancer. We have previously shown that PNC prevalence reduction is a valid strategy to identify compounds that can be used to study the structure and function of the PNC. It is necessary, however, to create a screening platform that is able to test a large number of compounds in an automated fashion. Here we report the development and robustness of an automated whole-cell phenotypic image-based screening assay that is capable of identifying such compounds.
# PNC High Content Imaging Assay Procedure: 1. Cells at a density of 75-90% confluency in T175 flasks were harvested using 7 ml TrypLE Express cell dissociation reagent. After dissociation (5 minutes room temperature incubation) 10 ml of complete media was added to the TrypLE/cell suspension. The liquid was transferred to a 50 ml Conical tube and cells were pelleted at 1000 RPM for 5 min. Supernatant was removed and cells were resuspended to a final density of 150-200 cells/ul in complete media. 2. Cells were plated in 5 ul volume (750-1000 cells/well) into 1536 well Black uclear Aurora Low Base plates and allowed to recover and adhere at 37 C in a humidified 5% CO2 incubator for 4 hours. 3. After 4 hour incubation, compound libraries (23 nl of […] in columns 5-48) were transferred to the plates in duplicate using a 1536 well pintool. Camptothecin positive control (59 uM final) was added to column 2 and 1:3 dilutions of camptothecin was added to column 3. DMSO negative controls were present in columns 1 and 4. 4. After a 16 hour incubation in the 37 C incubator, cells were fixed by the addition of 4 ul of 6% EM grade paraformaldehyde (containing 0.1% triton X 100) directly to the cells. The plates were incubated at room temperature for 20 minutes. The liquid was removed using a 32 channel Kalypsys aspirator and the fixed cells were washed twice with 5 ul PBS followed by a final addition of 5 ul PBS containing 1 ug/ml Hoechst 33342. 5. Fixed plates were sealed and sotred at 4C until imaged. 6. Plates were imaged on an InCell 1000 automated microscope using a 20 x objective, a standard FITC filter set, no camera binning, and an exposure time of ~100-150 msec/well. 7. Data analysis. PNC prevalence was determined using the Multitarget analysis module from InCell Workstation software (V3.5 ) and analysis was run on a quad core workstation using the Incell Developer Toolbox (V1.7). […]
row,SMILES,"activity change (PNC), negative = inhibition"
1,c1ccc(CN2CCC(Nc3ccccc3)CC2)cc1,inactive: 40.1%
2,O=C(OC1CN2CCC1CC2)C1c2ccccc2C=Cc2ccccc21 (stereo not drawn),inactive: -20%
3,N/C(=N\O)c1c(N)no[n+]1[O-],inactive: -4.53%
4,CCC(CO)(C(=O)OC1CN2CCC1CC2)c1ccccc1 (stereo not drawn),inactive: 30.9%
5,CCOc1ncccc1C(=O)NCC1(N2CCOCC2)CCCCC1,inactive: -1.87%
6,CCN1CCC(Nc2cccc(F)c2)CC1,inactive: 17.3%
7,Fc1ccccc1NC1CCN(Cc2ccccc2)CC1,inactive: 16.7%
8,COc1ccc(NC2CCN(CCc3ccccc3)CC2)c(OC)c1,inactive: -23.5%
9,O=C(OC1CN2CCC1CC2)C1c2ccccc2Oc2ccccc21 (stereo not drawn),inactive: 23.1%
10,O=C(NCC1(N2CCOCC2)CCCCC1)c1cc2ccccc2o1,inactive: 13.1%
11,O=C(NCC1(N2CCOCC2)CCCCC1)c1cc(=O)[nH]c2ccccc12,inactive: 8.49%
12,CN1CCN(CCOC(=O)C(O)(c2ccccc2)c2ccccc2)CC1,inactive: -14.5%
13,N#CC1(Nc2ccccc2)CCN(CCc2ccccc2)CC1,inactive: -25.8%

# Source: PubChem BioAssay AID2417 (National Center for Advancing Translational Sciences (NCATS), 2010)
